Nine substances from patent publication US20130243764A1 can be followed below.

In experiment [1] the target is recombinant cynomolgus TNF alpha (cynomolgus) (UniProt P79337). Briefly: Biacore T100 SPR, antibody captured on anti-human IgG, TNF alpha analyte, 37 C.
For experiment [2], the target named is recombinant cynomolgus FcRn (cynomolgus) (UniProt Q8SPV9). Briefly: ProteOn SPR, antibody captured on Protein L, cynomolgus FcRn analyte, equilibrium model, pH 6; pH 6; Protein L capture; batch Clinical grade.
The target in experiment [3] is recombinant cynomolgus TNF alpha (cynomolgus) (UniProt P79337). Briefly: Biacore T100 SPR, antibody captured on Protein A, TNF alpha analyte, 37 C.
For experiment [4], the target named is recombinant cynomolgus FcRn (cynomolgus) (UniProt Q8SPV9). The experiment can be described thus: ProteOn SPR, antibody amine-coupled on GLC chip, FcRn analyte, equilibrium model, pH 6.0, 25 C; pH 6.0; antibody amine-coupled on GLC chip.
For experiment [5] the target is unchanged. Briefly: ProteOn SPR, antibody amine-coupled on GLC chip, FcRn analyte, equilibrium model, pH 7.4, 25 C (no saturation; ranking only); pH 7.4; antibody amine-coupled on GLC chip; no saturation, ranking only.
Experiment [6] has the same target. Briefly: ProteOn SPR, antibody captured on Protein L, cynomolgus FcRn analyte, equilibrium model, pH 6; pH 6; Protein L capture; batch GRITS44348.
In experiment [7] the target is recombinant human FcγRIIIa (valine 158 variant) (human) (UniProt P08637). Briefly: ELISA, plate coated with recombinant human FcγRIIIa V158 at 1 µg/ml, anti-human kappa-HRP detection (Example 10) [a].
Experiment [8] addresses recombinant cynomolgus FcRn (cynomolgus) (UniProt Q8SPV9). Briefly: ProteOn SPR, antibody amine-coupled on GLC chip, FcRn analyte, equilibrium model, pH 6.0, 25 C.
Experiment [9] addresses recombinant human FcRn (human) (UniProt P55899). The experiment is described as above.
Experiment [10] deals with recombinant cynomolgus FcRn (cynomolgus) (UniProt Q8SPV9). Briefly: ProteOn SPR, antibody amine-coupled on GLC chip, FcRn analyte, equilibrium model, pH 7.4, 25 C (no saturation; ranking only).
The target of experiment [11] is recombinant human FcRn (human) (UniProt P55899). The experiment is described as above.
For experiment [12], the target named is TNF alpha (species not given). The experiment can be described thus: ProteOn SPR reverse assay, biotinylated TNF alpha captured on NLC chip, antibody analyte, 1:1 model, apparent kinetics.
Experiment [13] addresses recombinant cynomolgus FcRn (cynomolgus) (UniProt Q8SPV9). Briefly: ProteOn SPR, antibody captured on Protein L, cynomolgus FcRn analyte, equilibrium model, pH 6.
For experiment [14], the target named is recombinant human FcRn (human) (UniProt P55899). Briefly: ProteOn SPR, antibody captured on Protein L, human FcRn analyte, equilibrium model, pH 7.4, expt 2.
The target of experiment [15] is recombinant cynomolgus FcRn (cynomolgus) (UniProt Q8SPV9). The experiment can be described thus: ProteOn SPR, antibody captured on Protein L, cynomolgus FcRn analyte, equilibrium model, pH 7.4.
Experiment [16] deals with recombinant human FcRn (human) (UniProt P55899). Briefly: ProteOn SPR, antibody captured on Protein L, human FcRn analyte, equilibrium model, pH 7.4, expt 3.
Experiment [17] has the same target. Briefly: ProteOn SPR, antibody captured on Protein L, human FcRn analyte, equilibrium model, pH 6, expt 5.
The target is the same in experiment [18]. Briefly: ProteOn SPR, antibody captured on Protein L, human FcRn analyte, equilibrium model, pH 6, expt 4.
The target is the same in experiment [19]. The experiment can be described thus: ProteOn SPR, antibody captured on Protein L, human FcRn analyte, equilibrium model, pH 6, expt 3.
Experiment [20] concerns the target recombinant cynomolgus FcRn (cynomolgus) (UniProt Q8SPV9). The experiment can be described thus: ProteOn SPR, antibody captured on Protein L, cynomolgus FcRn analyte, pH 6.
The target of experiment [21] is recombinant human FcRn (human) (UniProt P55899). Briefly: ProteOn SPR, antibody amine-coupled on GLC chip, FcRn analyte, equilibrium model, pH 6.0, 25 C; pH 6.0; antibody amine-coupled on GLC chip.
For experiment [22] the target is unchanged. The experiment can be described thus: ProteOn SPR, antibody captured on Protein L, human FcRn analyte, equilibrium model, pH 7.4, expt 5.
The target is the same in experiment [23]. The experiment can be described thus: ProteOn SPR, antibody captured on Protein L, human FcRn analyte, equilibrium model, pH 6, expt 1.
The target of experiment [24] is TNF alpha (species not given). The experiment can be described thus: cell-based or functional assay.
Experiment [25] has as its target recombinant human FcRn (human) (UniProt P55899). Briefly: ProteOn SPR, antibody captured on Protein L, human FcRn analyte, pH 6.0; pH 6.0; Protein L capture; range over experiments, relative to BPC1492.
For experiment [26] the target is unchanged. Briefly: ProteOn SPR, antibody amine-coupled on GLC chip, FcRn analyte, equilibrium model, pH 7.4, 25 C (no saturation; ranking only); pH 7.4; antibody amine-coupled on GLC chip; no saturation, ranking only.
For experiment [27] the target is unchanged. Briefly: ProteOn SPR, antibody captured on Protein L, human FcRn analyte, equilibrium model, pH 7.4, expt 5 (** treat with caution).
The target is the same in experiment [28]. The experiment can be described thus: ProteOn SPR, antibody captured on Protein L, human FcRn analyte, equilibrium model, pH 6, expt 5 (** treat with caution).
Experiment [29] shares this target. The experiment can be described thus: ProteOn SPR, antibody captured on Protein L, human FcRn analyte, equilibrium model, pH 6, expt 2.
Experiment [30] concerns the target recombinant human tumour necrosis factor alpha (TNFα) (human) (UniProt P01375). Briefly: direct binding ELISA on human TNFα after the accelerated stressor study, 2 weeks at 37 °C (Example 7). In general terms: An ELISA detects its analyte on a solid surface through an enzyme-linked reagent.
Experiment [31] shares this target. The experiment can be described thus: direct binding ELISA on human TNFα after 2 weeks at 37 °C in 25% human serum (Example 8).

pKd: −log10 of the molar value. “And” between values parts separate entries of the source, which are not always exact repeats. Identical values can stand only once.

A word on the pKd: it is the Kd on a negative log10 scale, so that one unit is a factor of ten. Broadly, the EC50 (read off the curve) is the concentration that produces a half-maximal response. Take BPC1492 (antibody): the pKd is 9.72 in experiment [1]; 6.40 in experiment [2]; 10.00 in [3]; 6.24 in [4]; 4.53 in experiment [5]; 6.40 in [6]. Moreover, in experiment [7], the EC50 (read off the curve) stood at 0.008 µg/mL.

Take BPC1493 (antibody): the pKd in experiment [8] was 6.53; in experiment [9], 6.58; in [10] it was 5.33; in [11], 5.36.

A word on the koff: it is a measure of how fast the partners let go of each other. In general, kon refers to the second-order rate constant of association. Regarding BPC1494 (antibody), the pKd in experiment [12] is 9.32; in [13] it was 7.33 and 7.38 and 7.36; in [14], 5.70 and 5.04 and 5.03; in experiment [15], 4.83 and 4.88 and 4.86; in experiment [16], 5.75 and 4.98 and 4.96; in experiment [17] it was 7.60 and 7.58. For the same substance, the pKd in experiment [18] was 8.88 and 8.39 and 8.35; in [19], 9.15 and 8.71 and 8.61; in experiment [21], 6.69; in experiment [22], 4.90 and 4.93; in experiment [8], 6.62; in experiment [23] it was 7.18. For the same substance, the pKd is 5.63 in experiment [26]; 5.69 in experiment [27]; 8.22 in experiment [28]; 9.44 and 9.01 in experiment [29]; 5.58 in [10]. Besides, the koff in experiment [12] turned out to be 0.00035 s⁻¹. Further, in experiment [12], the kon is 723000 M⁻¹ s⁻¹. Besides, the results for the fold improvement in binding affinity compared to BPC1492 in experiment [20] and in [25] were 9 fold and 3.5 fold, respectively. Moreover, the IC50 value, L929 neutralisation assay (cell viability) in experiment [24] was found to be 1.2 µg/mL. Besides, the IC50 value, TNFα-induced IL-6 release assay (whole blood) in experiment [24] came out at 0.62 nM.

Consider “BPC1494 (antibody; other documents disagree on this pair)”, for which the EC50 (read off the curve) in experiment [30] and in experiment [31] was 0.02 µg/mL in each case.

For BPC1496 (antibody), the pKd in experiment [12] was 9.19. In experiment [24], this substance gave an IC50 value, L929 neutralisation assay (cell viability) of 1.18 µg/mL and an IC50 value, TNFα-induced IL-6 release assay (whole blood) of 0.64 nM. The EC50 (read off the curve) in experiment [7] was found to be 0.008 µg/mL. Moreover, the pKd in experiment [10] was 5.68.

As for “BPC1496 (antibody; other documents disagree on this pair)”, the EC50 (read off the curve) in experiment [30] was determined as 0.01 µg/mL; in [31] it was 0.02 µg/mL.

Consider BPC1498 (antibody), for which the pKd is 6.40 in experiment [8], 6.45 in experiment [9], 5.20 in experiment [10] and 5.23 in [11].

For the substance BPC1499 (antibody), in experiment [12], the pKd was 11.10, the koff was 1.72e-05 s⁻¹ and the kon was found to be 2.27e+06 M⁻¹ s⁻¹. Further, in experiment [24], the IC50 value, L929 neutralisation assay (cell viability) stood at 0.21 µg/mL and the IC50 value, TNFα-induced IL-6 release assay (whole blood) was determined as 0.14 nM.

For the substance BPC1501 (antibody), the pKd in experiment [12] is 10.22.
